Target: Ba/F3_KRAS^G12D cells (Homo sapiens, UniProt P01116, G12D, cells depend on it)
Assay: Ba/F3 KRAS G12D cell proliferation assay (CellTiter-Glo)
Details: read-out: BaF3_KRAS^G12D IC50, treated for 3 days, cell-titer Glo, cell growth inhibition, tested form: 3TFA

The chains behind the UniProt entries cited, without tags or fusion partners.
UniProt P01116, whole entry G12D: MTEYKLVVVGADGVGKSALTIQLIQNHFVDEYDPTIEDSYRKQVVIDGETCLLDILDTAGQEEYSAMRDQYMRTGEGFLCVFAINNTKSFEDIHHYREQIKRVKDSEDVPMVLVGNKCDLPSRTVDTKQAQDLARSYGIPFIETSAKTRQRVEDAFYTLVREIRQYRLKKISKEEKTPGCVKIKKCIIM

Structure (SMILES): C#Cc1c(F)ccc2cc(O)cc(-c3c(C#N)cc4c(N5CC6CCC(C5)N6)nc(OC[C@@]56CCCN5C[C@H](F)C6)nc4c3F)c12 (single isomer, unassigned)
- GI50: < 500 nM

Reference: US20230242544A1, “QUINAZOLINE COMPOUNDS, PREPARATION METHODS AND USES THEREOF” (INVENTISBIO CO., LTD., priority 2020, published 2023)
